Source: patent publication US7718764B2, “Biologically active peptide VAPEEHPTLLTEAPLNPK derivatives” (CMS Peptides Patent Holding Company Limited, priority 2004, dated 2010)

Tests used:
S180 sarcoma cells = assay: Growth of KM mice-transplanted S180 sarcoma cells in vivo; design: unit not given here; details: Table 12; for Sarcoma volume: V=(1/6)πABC, saline 1.20 ± 0.28; for Sarcoma weight: saline 1.87 ± 0.52
Procedure: S180 sarcoma cells were transplanted intraperitoneally into KM mice for 6-8 days and the ascites aseptically collected. The cell concentration was adjusted to 1×10^7 per ml with 10% FBS RPMI-1640, and 0.2 ml cell suspension was injected through the armpit into each KM mice for developing the sarcoma bearing mice model. […] Intraperitoneal injection of test substances started on the day immediately after tumor transplantation and continued once per day for 20 consecutive days.
On the day after the last test substance administration, the sarcomas were removed from the mice and weighed. The diameters of each sarcoma on the three planes (A, B, C) were measured by a vernier caliper. The volume of the sarcoma was calculated by the formula: V=(⅙)πABC.

mice T-lymphocyte = assay: Mice T-lymphocyte transformation induced by ConA in vitro (spleen cells, MTT); format: cell-based, BALB/c mice; details: for OD: Table 3, ConA 5 μg/ml, 68 hrs
Procedure: The spleens from healthy mice were isolated aseptically and manually dispersed in 10% FBS RPMI-1640 solution using an injection needle. The dispersed cell suspension was further sieved through a 100-gauge 150 μm diameter stainless steel sieve. The spleen cell suspension was adjusted to a density of 4×10^6/ml and was aliquoted onto 96-well cell culture plates at 100 μl/well. Peptides were dissolved in plain RPMI-1640. The design of the groupings was as given below.
Peptide group: 100 μl working peptide solution+75 μl spleen cell suspension+25 μl ConA working solution.
ConA control group: 100 μl RPMI-1640+75 μl spleen cell suspension+25 μl ConA working solution.
Negative control group: 125 μl RPMI-1640+75 μl spleen cell suspension.
The final concentration of ConA in the well was 5 μg/ml. The final concentrations of peptides in the well were 80 μg/ml, 16 μg/ml, 3.2 μg/ml, 0.64 μg/ml, and 0.128 μg/ml. Each peptide group contained three parallel wells, and eight or twelve wells for the control groups. The cells were incubated for 68 hrs at 37° C., 5% CO2. MTT method was used to obtain a reading of OD570 nm of each well referenced at 630 nm on an ELISA reader.

**Q.** What does the source list for CMS-010.32 (VA)?
**A.** Sarcoma volume (S180 sarcoma cells; 250 μg/kg/day): 0.25 ± 0.14*^@; Sarcoma weight (S180 sarcoma cells; 250 μg/kg/day): 0.38 ± 0.24*^@; Sarcoma volume (S180 sarcoma cells; 500 μg/kg/day): 0.40 ± 0.31; Sarcoma weight (S180 sarcoma cells; 500 μg/kg/day): 0.41 ± 0.35*^@; OD (mice T-lymphocyte; peptide 0.128 μg/ml, ConA control 0.358 ± 0.028): 0.306 ± 0.033; OD (mice T-lymphocyte; peptide 0.64 μg/ml, ConA control 0.358 ± 0.028): 0.321 ± 0.048; OD (mice T-lymphocyte; peptide 3.2 μg/ml, ConA control 0.358 ± 0.028): 0.309 ± 0.030; OD (mice T-lymphocyte; peptide 16 μg/ml, ConA control 0.358 ± 0.028): 0.273 ± 0.023; OD (mice T-lymphocyte; peptide 80 μg/ml, ConA control 0.358 ± 0.028, negative control 0.108 ± 0.012): 0.276 ± 0.034; Effect on mice T-lymphocyte transformation induced by ConA in vitro (mice T-lymphocyte; at suitable concentrations, vs ConA positive control P<0.05): suppress

Marks after values point to notes of the source that are not given here.
